Values of other authors in US8828988B2 (Tetraphase Pharmaceuticals, Inc., priority 2009, dated 2014).

Details: stated for comparison; cited from earlier work

CN(C)[C@@H]1C(O)=C(C(N)=O)C(=O)[C@@]2(O)C(O)=C3C(=O)c4c(O)cccc4[C@@](C)(O)[C@H]3C[C@@H]12 [Tetracycline, tetracycline, reference compound]
oral bioavailability in rats: 12.1%
